The subject of data set [1] is New Zealand White (NZW) Rabbits. Particulars: Day 1 and Day 8, eyes enucleated day 14.
In another data set the test system is ARPE-19 cells. Particulars: concentrations of 0.1 mg/mL or lower; viability test on day 3.
The target of data set [2] is monoclonal antibody products. The conditions noted are these: binding to monoclonal antibody products; read-out: dissociation constant (KD).

pKd: −log10 of the molar value. Read-outs that look alike come from different tables or passages of the source.

Turning to Protein A, the “inflammatory infiltrate in cornea, anterior chamber, angle, vitreous/retina (H&E histopathology)” value in data set [1] (0.31 mg/eye intravitreal) is “significant inflammatory infiltrate”. Besides, the “cytotoxicity (percentage survival versus growth media only)” value in the data set on ARPE-19 cells is recorded as “low cytotoxicity”.
For orientation: pKd means the negative decadic logarithm of the Kd, by convention in mol/L. For the substance Z domain [SEQ ID NO: 3], the pKd in data set [2] is above 8.00. Besides, in data set [1] (0.35 mg/eye intravitreal), the “inflammatory infiltrate in cornea, anterior chamber, angle, vitreous/retina (H&E histopathology)” value is “significant inflammatory infiltrate”.
